The source of these data is article PMC9965349 (Viruses, 2023).

The chains behind the UniProt entries cited, without tags or fusion partners. Residues count along the entry.
UniProt Q91AV1, 26-734 limits assumed: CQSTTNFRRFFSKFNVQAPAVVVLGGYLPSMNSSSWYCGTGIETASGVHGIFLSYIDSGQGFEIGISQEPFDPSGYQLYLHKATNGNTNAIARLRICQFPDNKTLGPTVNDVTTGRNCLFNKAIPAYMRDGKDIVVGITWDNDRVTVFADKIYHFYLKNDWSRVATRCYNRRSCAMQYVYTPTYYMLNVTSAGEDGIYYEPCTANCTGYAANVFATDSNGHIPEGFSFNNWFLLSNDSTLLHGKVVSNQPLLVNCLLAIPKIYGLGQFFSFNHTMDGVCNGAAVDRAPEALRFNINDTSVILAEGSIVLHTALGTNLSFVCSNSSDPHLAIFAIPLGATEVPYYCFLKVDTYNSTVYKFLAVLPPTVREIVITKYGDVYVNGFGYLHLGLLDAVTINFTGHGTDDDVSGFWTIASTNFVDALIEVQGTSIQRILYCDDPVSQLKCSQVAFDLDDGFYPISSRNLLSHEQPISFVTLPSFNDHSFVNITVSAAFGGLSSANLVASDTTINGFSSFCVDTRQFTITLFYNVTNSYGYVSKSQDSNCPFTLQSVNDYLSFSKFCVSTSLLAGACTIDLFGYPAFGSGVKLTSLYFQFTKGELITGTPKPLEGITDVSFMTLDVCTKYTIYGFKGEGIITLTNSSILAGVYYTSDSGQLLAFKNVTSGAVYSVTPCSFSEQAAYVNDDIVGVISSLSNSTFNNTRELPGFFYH

The target of test [1] is T1, PEDV S1 protein (Porcine epidemic diarrhea virus, UniProt Q91AV1). The test can be described thus: SPR kinetic measurement (Biacore X100, CM5 chip). The following applies: 1:1 binding fit, peptide 0.78125-25 μM, HBS-EP pH 7.4, 30 μL/min, 120 s association, 120 s dissociation.
The target in test [2] is T1, PEDV S1 protein. The test can be described thus: ELISA affinity of his-labeled peptides to coated PEDV S1 protein. The following applies: PEDV S1 coated at 10 μg/mL; his-labeled peptide 1 μg/mL, 1 h 37 °C; anti-his mAb 1:1000; TMB; three parallel groups. The class given is binding.

As to `CC[C@H](C)[C@H](NC(=O)[C@H](CCCNC(=N)N)NC(=O)[C@H](Cc1c[nH]cn1)NC(=O)[C@H](CCCCN)NC(=O)[C@H](Cc1c[nH]c2ccccc12)NC(=O)[C@H](Cc1ccccc1)NC(=O)[C@@H](NC(=O)[C@H](CCCNC(=N)N)NC(=O)[C@H](Cc1c[nH]cn1)NC(=O)[C@H](CCCCN)NC(=O)[C@H](Cc1c[nH]c2ccccc12)NC(=O)[C@@H](N)Cc1ccccc1)[C@@H](C)CC)C(=O)O` [compound 111740], on PEDV S1 protein [1], the Kd was determined as 0.01975 s⁻¹. FWKPKR [compound 114180]: at PEDV S1 protein [2], the “OD value at 450 nm (ELISA)” value is recorded as 0.233.
